Patent US20060024786A1, “WASP and N-WASP constructs and methods of expressing such constructs” (Cytokinetics, Inc., priority 2004, published 2006)

Experiments:
[1] = molecular target: full length human N-WASP (Myc-N-WASP-TAP) (human); test: cell-based or functional assay
[2] = molecular target: full length human WASP (Myc-WASP-TAP) (human); test: cell-based or functional assay

Row | Barbed ends % of max. (after subtracting baseline) [1] | Barbed ends, nM (pyrene-actin polymerization assay) [1] | EC50, nM (activation of actin polymerization) [1] | acceleration of actin polymerization (pyrene-actin assay) [1] | Barbed ends % of max. (after subtracting baseline) [2] | Barbed ends, nM (pyrene-actin polymerization assay) [2] | EC50, nM (activation of actin polymerization) [2] | acceleration of actin polymerization (pyrene-actin assay) [2] | Substance
1 | 75% | 3.4 nM | 11 nM | 13 fold | 94% | 4 nM | 10 nM | 13 fold | N_GST_tev_Nck1 (bacterial GST tagged Nck1 protein)
2 | – | – | 31 nM | – | – | – | 80 nM | – | N_GST_tev_Rac1 GTP (bacterial GST tagged Rac1 protein) (enzyme)
